Binding of CDR-mutated scFvs to a peptide of the spike HR2 region

Target: peptide PDVDLGDISGINAS, taken from heptad repeat 2 (HR2) of SARS-CoV-2 spike.

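Phage display of a naive human antibody library on the peptide gave the parent. Designed CDR sequences, proposed from the first random library and measured here. Their group label is 14L_GP_Gen (GP: Gaussian process model; Gen: genetic algorithm; a sequence that several methods proposed may carry one label only). The assay is AlphaSeq: two haploid yeast populations carry antibody and antigen on their surface. Binding brings cells together so that they mate, and sequencing counts the barcode pairs among the diploids. Each replicate has its own calibration line, from reference interactions of the BCL2 family. There are six technical replicates.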

Parent scFv Ab-14: VH joined to VL by three GGGGS repeats. Changes lie in the light chain CDRs alone.
VH: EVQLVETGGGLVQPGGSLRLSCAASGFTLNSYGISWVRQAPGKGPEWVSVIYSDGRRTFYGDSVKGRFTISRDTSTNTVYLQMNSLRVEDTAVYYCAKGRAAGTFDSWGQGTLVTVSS
VL: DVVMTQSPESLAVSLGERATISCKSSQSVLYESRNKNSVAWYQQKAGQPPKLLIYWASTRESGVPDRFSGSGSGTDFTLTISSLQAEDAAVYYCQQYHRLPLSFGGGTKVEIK

The parent's light chain CDRs are KSSQSVLYESRNKNSVA, WASTRES, QQYHRLPLS; each variant's own CDRs replace them letter for letter. Affinities are written as log10 Kd with Kd in nM; a lower number is a better binder. The range of this assay differs from that of the first round, and the authors advise against merging the two.

CDR-L1,CDR-L2,CDR-L3,"replicates, log10 nM",empty controls
KLPQSQLYESRNKNSVA,NASTRES,QDYHRLPLS,0.09 / -0.11 / -0.26 / -0.28 / -0.01 / 0.05,1/18 (1.93)
KLSQSVEYESRNKNNVA,HASTRES,QQYHRLPLS,0.00 / -0.05 / -0.07 / -0.19 / -0.14 / 0.02,3/18 (3.06)
KVSFSVLYESRNKNSVA,EASTRES,QQYHRLPLS,0.40 / 0.68 / 0.30 / 0.39 / 0.23 / 0.32,2/18 (1.64)
KLPQSYLYESRNKNSVA,NASQRES,QQYHRLPLS,-0.27 / -0.21 / -0.33 / -0.43 / -0.35 / -0.24,4/18 (3.04)
KLQQSFLYESRNKNSVA,DASTRES,QQYHRLPLS,-0.17 / -0.15 / -0.29 / -0.35 / -0.29 / -0.14,1/18 (3.31)
KLSQSVGYEERNKNSVA,NASQRES,QQYHRLPLS,0.41 / -0.18 / 0.02 / 0.11 / 0.25 / 0.30,1/18 (1.86)
KLSQSVLYESRQKNSVA,NASTREE,QQYHRLPLS,-0.14 / -0.51 / -0.33 / -0.46 / -0.52 / -0.20,1/18 (3.39)
KLSQSMPYESRNKNSVA,NASQRES,QQYHRLPLS,-0.21 / -0.40 / -0.13 / -0.27 / -0.11 / -0.31,1/18 (1.84)
KLQQSVLYESRNKNSVA,NASQREQ,QQYHRLPLS,-0.15 / -0.34 / -0.36 / -0.52 / -0.33 / -0.35,0/18
KLSQSVLYESRNKNAVA,EASTRMS,QQYHRLPLS,-0.23 / -0.24 / -0.42 / -0.46 / -0.50 / -0.13,0/18
KLSQSVLYESRNANNVA,NASTRES,QQYHRLPLS,-0.40 / -0.51 / -0.51 / -0.71 / -0.60 / -0.47,1/18 (2.28)
KVEQSVPYESRNKNSVA,EASTRES,QQYHRLPLS,-0.39 / -0.59 / -0.57 / -0.89 / -0.79 / -0.34,2/18 (1.69)
KVSQSHLYESRNKNSVA,NASTRCS,QQYHRLPLS,0.62 / 0.72 / 0.66 / 0.47 / 0.65 / 0.51,1/18 (3.89)
KLSQSVLVESRNKNSVA,NASTRED,QQYHRLPLS,-0.30 / -0.20 / -0.48 / -0.57 / -0.50 / -0.30,1/18 (2.95)
KLQQSVLYESRNKNSVA,NASKRES,QQYHRLPLS,0.08 / -0.10 / -0.05 / -0.21 / -0.23 / -0.01,1/18 (2.72)
KLMQSVLYESRNKNSVA,NASTRES,QQYHRLPLM,0.52 / 0.22 / 0.20 / 0.19 / 0.12 / 0.31,3/18 (2.49)
KVSQSWPYESRNKNSVA,NASQRES,QQYHRLPLS,0.00 / -0.03 / -0.16 / -0.09 / -0.03 / 0.11,2/18 (3.11)
KLSQSVLYQSRNKNSVA,NASTRMS,QQYHRLPLS,-0.17 / -0.24 / 0.12 / -0.14 / -0.24 / 0.23,0/18
KVSQSWDYESRNKNSVA,NASTRES,QQYHRLPLS,0.26 / 0.25 / 0.32 / 0.12 / 0.22 / 0.25,1/18 (2.94)
KFSQSVGYESRNKNSVA,DASQRES,QQYHRLPLS,-0.20 / -0.29 / -0.51 / -0.36 / -0.31 / -0.15,2/18 (2.14)
KLSQSVPYESRNKNSVA,QASTRES,QQYHRLPLS,0.17 / 0.10 / -0.12 / -0.12 / 0.00 / 0.15,2/18 (2.60)
KLSQSQLYESRNKNNVA,SASTRES,QQYHRLPLS,-0.24 / -0.43 / -0.57 / -0.63 / -0.55 / -0.39,3/18 (3.40)
KVSQSQLYESRNKNSVA,NASQRES,QDYHRLPLS,-0.15 / -0.30 / -0.54 / -0.58 / -0.29 / -0.24,0/18
KLEQSHLYESRNKNAVA,NASQRES,QQYHRLPLS,-0.19 / -0.31 / -0.57 / -0.48 / -0.48 / -0.23,2/18 (2.62)
KLSQSVLYESRNKNQVA,EASTRES,QQYHRLPLS,-0.06 / -0.38 / -0.65 / -0.60 / -0.55 / -0.54,0/18
KVSQSVLYESRNKNSVA,EASTREA,QQYHRLPLS,0.13 / 0.01 / -0.03 / -0.01 / -0.10 / -0.09,0/18
KVSQSVGYESRNKNSVA,DASTRES,QQYHRLPLS,-0.04 / -0.14 / -0.21 / -0.33 / -0.23 / 0.02,3/18 (2.66)
KFSQSVLYEDRNSNSVA,NASTRES,QQYHRLPLS,0.55 / 0.12 / 0.16 / -0.10 / 0.33 / 0.25,1/18 (2.17)
KLEQLVLYESRNKNSVA,NASTRES,QQYHRLPLS,0.26 / 0.01 / -0.08 / 0.26 / -0.47 / -0.08,0/18
KLPQSVLYESRNKNSVA,GASTRES,QQYHRLPLS,-0.22 / -0.05 / -0.06 / -0.21 / -0.39 / -0.04,1/18 (1.72)
KLSQSWLYESRNKNSVA,NASTRME,QQYHRLPLS,0.00 / -0.13 / -0.10 / -0.13 / -0.32 / -0.24,0/18
KLSQSVLYEWRNKNSVA,NASTRES,QQYHRLPLS,-0.38 / -0.37 / -0.60 / -0.53 / -0.53 / -0.44,0/18
KLQQSELYESRNKNSVA,SASTRLS,QQYHRLPLS,0.44 / 0.54 / 0.44 / 0.61 / 0.55 / 0.63,1/18 (2.64)
KLSQSVLYESRMKNSVA,NASQRLS,QQYHRLPLS,0.33 / 0.14 / 0.01 / -0.10 / 0.11 / 0.10,2/18 (2.88)
KLPQSDLYESRNKNSVA,EASTREV,QQYHRLPLS,-0.06 / -0.05 / -0.22 / -0.15 / -0.10 / -0.05,0/18
KVSQSVLYESRNKNSVA,DASTRCS,QQYHRLPLS,0.99 / 0.75 / 0.15 / 0.81 / 0.40 / 0.55,1/18 (1.84)
KVSQSMLYESRNKNSVA,HASQRES,QQYHRLPLS,-0.25 / -0.25 / -0.28 / -0.35 / -0.33 / -0.21,0/18
KLSQSELYESRMKNSVA,GASTRES,QQYHRLPLS,0.25 / 0.14 / 0.04 / -0.01 / 0.21 / 0.26,4/18 (2.75)
KLSMSELYESRNKNSVA,NASTRLS,QQYHRLPLS,-0.01 / -0.19 / -0.11 / -0.29 / -0.12 / -0.23,1/18 (3.67)
KLQQLWLYESRNKNSVA,NASTRES,QQYHRLPLS,0.36 / 0.10 / 0.67 / 0.34 / 0.34 / 0.61,2/18 (2.75)
KFSQSQLYETRNKNSVA,NASQRES,QQYHRLPLS,-0.21 / -0.31 / -0.32 / -0.17 / -0.22 / -0.19,2/18 (3.40)
KMSQSVWYESRNKNSVA,EASTRES,QQYHRLPLS,1.39 / 0.36 / 1.23 / -0.14 / -0.15 / 0.48,0/18
KLSQSELYESRNKNSVA,EASTRSS,QQYHRLPLS,-0.06 / -0.07 / -0.46 / -0.24 / -0.25 / -0.01,0/18
KLQQSMLYESRNKNSVA,NASQRES,QQYHRLPLS,0.36 / 0.03 / -0.04 / -0.01 / 0.12 / 0.32,0/18
KLPQSQLYESRNKNSVA,DASTRES,QQYHRLPLS,-0.30 / -0.26 / -0.40 / -0.48 / -0.41 / -0.21,1/18 (3.05)
KSQQSELYESRNKNSVA,NASTRLS,QQYHRLPLS,-0.07 / -0.10 / -0.18 / -0.15 / -0.25 / -0.10,1/18 (1.67)
KLSQSVPYESRNKNSVA,MASTRES,QQYHRLPLS,0.26 / 0.23 / -0.06 / 0.13 / 0.23 / 0.29,5/18 (2.68)
KLMQSELYESRNKNSVA,NASQRLS,QQYHRLPLS,0.16 / 0.02 / -0.06 / -0.19 / -0.15 / 0.00,5/18 (3.18)

Picked from the list: the 6 lowest averages where every replicate gave a value.

CDR-L1,CDR-L2,CDR-L3,"replicates, log10 nM",empty controls
KVEQSVPYESRNKNSVA,EASTRES,QQYHRLPLS,-0.39 / -0.59 / -0.57 / -0.89 / -0.79 / -0.34,2/18 (1.69)
KLSQSVLYESRNANNVA,NASTRES,QQYHRLPLS,-0.40 / -0.51 / -0.51 / -0.71 / -0.60 / -0.47,1/18 (2.28)
KLSQSVLYEWRNKNSVA,NASTRES,QQYHRLPLS,-0.38 / -0.37 / -0.60 / -0.53 / -0.53 / -0.44,0/18
KLSQSQLYESRNKNNVA,SASTRES,QQYHRLPLS,-0.24 / -0.43 / -0.57 / -0.63 / -0.55 / -0.39,3/18 (3.40)
KLSQSVLYESRNKNQVA,EASTRES,QQYHRLPLS,-0.06 / -0.38 / -0.65 / -0.60 / -0.55 / -0.54,0/18
KLSQSVLVESRNKNSVA,NASTRED,QQYHRLPLS,-0.30 / -0.20 / -0.48 / -0.57 / -0.50 / -0.30,1/18 (2.95)

Three control strains display no target. For all light chain designs, 4% of the pairings with them gave a signal, with a median of 2.64 and one signal in twenty below 1.59, so weak values seen in few replicates may be background. The control count says in how many pairings with the empty strains this scFv gave a signal, with their mean in brackets. The authors' rule: three or more of the six replicates give a measured affinity, fewer mean a poor binder.

Values reported by Li et al. 2023, doi:10.1038/s41467-023-39022-2 (FLAb copy).